Structures are written as SMILES.

Protein sequences, listed by entry. Tags and fused reporters are not part of them. Lines headed by an entry give the natural chain unless they say otherwise; changes in a name come on top.
UniProt P08581: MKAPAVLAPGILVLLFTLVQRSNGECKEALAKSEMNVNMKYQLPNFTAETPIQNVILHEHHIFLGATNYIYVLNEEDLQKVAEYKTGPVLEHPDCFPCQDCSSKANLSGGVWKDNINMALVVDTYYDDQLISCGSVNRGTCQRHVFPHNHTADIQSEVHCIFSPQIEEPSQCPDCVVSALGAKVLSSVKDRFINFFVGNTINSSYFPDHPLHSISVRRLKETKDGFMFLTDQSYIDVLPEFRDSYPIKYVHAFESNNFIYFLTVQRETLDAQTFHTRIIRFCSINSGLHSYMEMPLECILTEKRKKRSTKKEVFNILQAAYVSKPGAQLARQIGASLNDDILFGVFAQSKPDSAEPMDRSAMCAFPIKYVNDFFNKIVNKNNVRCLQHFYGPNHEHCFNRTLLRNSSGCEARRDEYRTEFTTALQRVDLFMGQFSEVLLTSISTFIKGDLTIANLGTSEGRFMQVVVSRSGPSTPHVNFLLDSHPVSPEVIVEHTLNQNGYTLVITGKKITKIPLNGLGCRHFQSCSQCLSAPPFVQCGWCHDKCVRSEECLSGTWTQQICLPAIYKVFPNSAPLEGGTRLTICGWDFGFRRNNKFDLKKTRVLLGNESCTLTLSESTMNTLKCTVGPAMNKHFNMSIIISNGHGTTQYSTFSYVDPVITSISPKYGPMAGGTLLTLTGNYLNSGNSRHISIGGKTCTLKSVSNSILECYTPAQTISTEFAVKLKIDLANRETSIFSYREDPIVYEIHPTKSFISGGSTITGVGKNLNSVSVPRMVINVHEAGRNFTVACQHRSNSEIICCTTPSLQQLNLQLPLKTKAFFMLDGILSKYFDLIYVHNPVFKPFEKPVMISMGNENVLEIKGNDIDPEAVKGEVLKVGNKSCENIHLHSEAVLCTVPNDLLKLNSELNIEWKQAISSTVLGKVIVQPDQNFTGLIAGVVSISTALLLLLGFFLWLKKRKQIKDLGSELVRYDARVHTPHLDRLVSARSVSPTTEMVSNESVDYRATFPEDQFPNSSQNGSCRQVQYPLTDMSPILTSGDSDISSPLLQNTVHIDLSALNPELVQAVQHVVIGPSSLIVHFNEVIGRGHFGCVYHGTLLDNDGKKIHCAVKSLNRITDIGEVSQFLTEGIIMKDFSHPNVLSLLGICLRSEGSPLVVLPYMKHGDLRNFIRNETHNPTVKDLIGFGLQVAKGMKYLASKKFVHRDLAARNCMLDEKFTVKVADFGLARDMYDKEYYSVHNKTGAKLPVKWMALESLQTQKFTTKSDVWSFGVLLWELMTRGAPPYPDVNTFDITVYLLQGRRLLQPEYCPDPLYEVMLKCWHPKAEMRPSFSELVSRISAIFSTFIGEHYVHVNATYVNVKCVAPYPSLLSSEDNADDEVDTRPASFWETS

The assay has as its target Hepatocyte growth factor receptor (Homo sapiens) (UniProt P08581). As to the kind of experiment: Inhibition of human recombinant his-tagged c-Met at 100 uM by TR-FRET assay. The arrangement: scale not given: the % may be the effect or the level left. Background: Time-resolved FRET reads energy transfer from a long-lived donor to a nearby acceptor.
As to `CC(=O)Nc1cnc2cc(C(F)(F)F)cc(-c3ccccc3)c2n1`, the Activity turned out to be 0%.
Take `FC(F)(F)c1cc(-c2ccccc2)c2nccnc2c1`: the Activity was 0%.
Regarding `CN1CCN(c2cnc3cc(C(F)(F)F)cc(-c4ccc(OCc5ccccc5)cc4)c3n2)CC1`, the Activity came to 0%.
